Data from patent US20250059205A1, “Heterocyclic Compounds and Methods of Use” (AMGEN INC., priority 2021, published 2025).
Where two headings read alike, the source gives them in different places.

Amino acid sequences for entries named in this document (tags omitted). Residues count along the entry.
UniProt P01116, 1-188 isoform 2 G12D: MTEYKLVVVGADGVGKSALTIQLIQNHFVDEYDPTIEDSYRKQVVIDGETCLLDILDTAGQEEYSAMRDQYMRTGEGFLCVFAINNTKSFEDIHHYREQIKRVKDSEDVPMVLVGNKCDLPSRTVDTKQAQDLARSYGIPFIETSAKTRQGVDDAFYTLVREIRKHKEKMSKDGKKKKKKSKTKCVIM

What was measured:
[1] = target: His-tagged KRAS G12D protein (Homo sapiens, UniProt P01116, G12D); experiment: KRAS G12D TR-FRET Assay; format: binding; conditions: read-out: TR-FRET KRAS G12D IC50
[2] = system: Phosphorylation of ERK1/2 in A-427 cells; experiment: Phospho-ERK1/2 MSD Assay (A-427 cells)
[3] = system: Phosphorylation of ERK1/2 in AsPC-1 cells; experiment: Phospho-ERK1/2 MSD Assay (AsPC-1 cells); format: cell-based
[4] = read-out: p-ERK (A427 cells) IC50, 2 h treatment, tested form: TFA salt
[5] = read-out: p-ERK (AsPC-1 cells) IC50, 2 hours treatment, tested form: TFA salt
[6] = tested form: bis(2,2,2-trifluoroacetate)
[7] = read-out: p-ERK (A427 cells) IC50, 2 h treatment, tested form: bis(2,2,2-trifluoroacetate)
[8] = read-out: p-ERK (AsPC-1 cells) IC50, 2 hours treatment, tested form: bis(2,2,2-trifluoroacetate)

CCc1cccc2cccc(-c3c(F)cc4c(N5[C@@H]6CC[C@H]5CNC6)nc(OC[C@@]56CCCN5C[C@H](F)C6)nc4c3F)c12
IC50 ([1]; tested form: TFA salt): 19 nM | IC50 [2, 4]: 4470 nM | IC50 [3, 5]: 1780 nM

C=Cc1cc2c(N3C[C@H]4CC[C@@H](C3)N4)nc(OC[C@@]34CCCN3C[C@H](F)C4)nc2c(F)c1-c1cc(O)cc2ccccc12
IC50 [1, 6]: 5 nM | IC50 [2, 7]: 68 nM | IC50 [3, 8]: 368 nM

CCc1cc2c(N3C[C@H]4CC[C@@H](C3)N4)nc(OC[C@@]34CCCN3C[C@H](F)C4)nc2c(F)c1-c1cc(O)cc2ccccc12
IC50 [1, 6]: 5 nM | IC50 [2, 7]: 33 nM | IC50 [3, 8]: 127 nM

Cc1cc2c(N3C[C@H]4CC[C@@H](C3)N4)nc(OC[C@@]34CCCN3C[C@H](F)C4)nc2c(F)c1-c1cc(O)cc2ccccc12
IC50 [1, 6]: 4 nM | IC50 [2, 7]: 41 nM | IC50 [3, 8]: 167 nM

Cc1cc2cnn(C)c2c(-c2ccc3c(N4C[C@H]5CC[C@@H](C4)N5)nc(OC[C@@]45CCCN4C[C@H](F)C5)nc3c2F)c1C
IC50 ([1]; tested form: TFA salt): 26 nM | IC50 [2, 4]: 2120 nM | IC50 [3, 5]: 2380 nM

Cc1ccc2cnn(C)c2c1-c1ccc2c(N3C[C@H]4CC[C@@H](C3)N4)nc(OC[C@@]34CCCN3C[C@H](F)C4)nc2c1F
IC50 ([1]; tested form: TFA salt): 42 nM | IC50 [2, 4]: 3170 nM | IC50 [3, 5]: 3150 nM
